Assay [1] deals with Adrenergic receptor alpha-1 (Rattus norvegicus) (UniProt P15823+P23944+P43140). The experiment in a line: Antagonistic activity against Alpha-1 adrenergic receptor in rat prostate tissue using A61603 as agonist. The format is functional, tissue-based. As to conditions: Prostate gland.
The target of assay [2] is T1, Alpha-1A adrenergic receptor (Homo sapiens, UniProt P35348).
T1 sequence (P35348 whole entry): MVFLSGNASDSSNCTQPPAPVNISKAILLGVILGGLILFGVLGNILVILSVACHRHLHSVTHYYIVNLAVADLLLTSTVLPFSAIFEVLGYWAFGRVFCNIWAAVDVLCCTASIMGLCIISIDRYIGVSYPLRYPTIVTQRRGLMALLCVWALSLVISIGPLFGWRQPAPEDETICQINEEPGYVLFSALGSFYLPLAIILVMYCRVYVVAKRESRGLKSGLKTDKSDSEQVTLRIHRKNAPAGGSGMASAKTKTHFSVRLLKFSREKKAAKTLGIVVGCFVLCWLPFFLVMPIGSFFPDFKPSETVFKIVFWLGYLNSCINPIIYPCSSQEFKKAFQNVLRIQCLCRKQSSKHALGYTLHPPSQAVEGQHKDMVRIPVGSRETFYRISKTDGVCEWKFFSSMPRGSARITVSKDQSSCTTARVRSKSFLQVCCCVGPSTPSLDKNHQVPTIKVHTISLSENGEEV
The experiment in a line: In vitro binding affinity against Alpha-1A adrenergic receptor in isolated prostate tissue of human. The format is tissue-based, Prostate gland.

Protein sequences, listed by entry. Tags and fused reporters are not part of them. Lines headed by an entry give the natural chain unless they say otherwise; changes in a name come on top.
UniProt P15823, whole entry, looked up: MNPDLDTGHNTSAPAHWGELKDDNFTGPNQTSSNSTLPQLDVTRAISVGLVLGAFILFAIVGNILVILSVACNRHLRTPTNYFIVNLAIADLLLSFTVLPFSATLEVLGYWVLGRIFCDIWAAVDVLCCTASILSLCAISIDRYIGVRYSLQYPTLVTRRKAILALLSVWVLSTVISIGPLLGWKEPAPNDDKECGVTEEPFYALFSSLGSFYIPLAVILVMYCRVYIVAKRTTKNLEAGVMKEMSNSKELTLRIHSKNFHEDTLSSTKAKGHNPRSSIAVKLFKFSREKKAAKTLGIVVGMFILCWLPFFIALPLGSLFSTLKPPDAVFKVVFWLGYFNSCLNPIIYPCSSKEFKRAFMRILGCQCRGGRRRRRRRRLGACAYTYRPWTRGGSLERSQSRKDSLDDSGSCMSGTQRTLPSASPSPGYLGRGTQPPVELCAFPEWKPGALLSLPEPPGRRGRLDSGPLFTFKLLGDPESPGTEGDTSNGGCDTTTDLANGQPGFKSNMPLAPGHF
UniProt P23944, whole entry, looked up: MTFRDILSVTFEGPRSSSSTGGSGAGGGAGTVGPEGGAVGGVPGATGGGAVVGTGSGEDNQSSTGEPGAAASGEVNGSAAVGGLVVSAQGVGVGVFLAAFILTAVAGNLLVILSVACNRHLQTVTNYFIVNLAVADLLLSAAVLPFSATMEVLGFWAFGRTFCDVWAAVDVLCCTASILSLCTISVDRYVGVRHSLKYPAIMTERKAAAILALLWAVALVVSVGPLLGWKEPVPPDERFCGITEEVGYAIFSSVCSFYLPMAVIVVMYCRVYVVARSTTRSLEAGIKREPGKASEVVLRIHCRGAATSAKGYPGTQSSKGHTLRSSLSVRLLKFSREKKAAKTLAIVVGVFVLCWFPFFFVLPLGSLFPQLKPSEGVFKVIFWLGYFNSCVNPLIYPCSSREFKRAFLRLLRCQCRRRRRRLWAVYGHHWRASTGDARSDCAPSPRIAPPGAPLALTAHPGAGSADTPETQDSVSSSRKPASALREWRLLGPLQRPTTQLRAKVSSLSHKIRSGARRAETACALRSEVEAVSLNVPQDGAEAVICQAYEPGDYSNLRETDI
UniProt P43140: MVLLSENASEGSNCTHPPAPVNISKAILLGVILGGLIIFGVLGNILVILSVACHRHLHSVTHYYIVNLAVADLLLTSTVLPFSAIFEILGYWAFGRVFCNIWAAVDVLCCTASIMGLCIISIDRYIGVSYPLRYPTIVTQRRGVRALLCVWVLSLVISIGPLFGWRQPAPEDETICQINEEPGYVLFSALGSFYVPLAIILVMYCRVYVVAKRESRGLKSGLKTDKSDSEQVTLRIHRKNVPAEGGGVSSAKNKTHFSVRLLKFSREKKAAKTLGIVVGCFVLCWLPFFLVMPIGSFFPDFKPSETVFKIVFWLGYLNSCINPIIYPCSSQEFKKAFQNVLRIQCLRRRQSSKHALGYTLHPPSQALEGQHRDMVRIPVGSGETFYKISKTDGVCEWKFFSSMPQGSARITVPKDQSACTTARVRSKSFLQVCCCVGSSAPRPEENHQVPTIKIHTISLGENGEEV
UniProt P25100, whole entry: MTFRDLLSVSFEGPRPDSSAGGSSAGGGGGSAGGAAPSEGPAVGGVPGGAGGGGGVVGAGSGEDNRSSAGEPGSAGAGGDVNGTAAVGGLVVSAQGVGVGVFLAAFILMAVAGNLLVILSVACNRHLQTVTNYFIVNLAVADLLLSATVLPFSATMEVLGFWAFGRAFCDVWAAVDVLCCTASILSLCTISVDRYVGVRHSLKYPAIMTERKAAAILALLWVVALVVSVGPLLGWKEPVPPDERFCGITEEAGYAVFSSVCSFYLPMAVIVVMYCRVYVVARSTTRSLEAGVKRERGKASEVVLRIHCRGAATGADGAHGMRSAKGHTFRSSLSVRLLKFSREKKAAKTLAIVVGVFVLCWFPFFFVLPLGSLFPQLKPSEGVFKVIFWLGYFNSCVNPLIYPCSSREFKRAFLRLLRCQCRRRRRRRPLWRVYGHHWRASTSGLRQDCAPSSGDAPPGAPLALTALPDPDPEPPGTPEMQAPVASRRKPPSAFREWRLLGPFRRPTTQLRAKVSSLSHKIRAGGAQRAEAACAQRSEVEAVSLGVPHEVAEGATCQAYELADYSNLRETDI
UniProt P35368, whole entry: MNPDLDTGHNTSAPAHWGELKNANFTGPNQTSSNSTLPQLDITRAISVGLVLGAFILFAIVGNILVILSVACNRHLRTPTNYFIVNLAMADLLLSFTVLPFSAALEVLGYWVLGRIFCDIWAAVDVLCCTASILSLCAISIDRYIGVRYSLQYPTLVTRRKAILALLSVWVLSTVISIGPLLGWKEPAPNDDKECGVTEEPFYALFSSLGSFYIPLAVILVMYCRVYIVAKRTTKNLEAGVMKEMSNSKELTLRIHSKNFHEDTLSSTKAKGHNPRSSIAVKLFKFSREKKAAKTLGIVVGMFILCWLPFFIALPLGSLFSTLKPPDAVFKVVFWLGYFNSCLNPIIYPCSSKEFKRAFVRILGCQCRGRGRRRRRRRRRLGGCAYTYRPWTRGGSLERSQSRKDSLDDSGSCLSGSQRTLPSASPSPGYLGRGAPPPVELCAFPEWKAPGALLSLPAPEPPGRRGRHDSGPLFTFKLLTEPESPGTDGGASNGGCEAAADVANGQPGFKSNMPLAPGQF

For assay [3], the target named is Alpha-1D adrenergic receptor (Homo sapiens, UniProt P25100). The experiment in a line: In vitro binding affinity against Alpha-1D adrenergic receptor of cloned human receptor.
For assay [4], the target named is Alpha-1B adrenergic receptor (Homo sapiens, UniProt P35368). The experiment in a line: In vitro binding affinity against Alpha-1B adrenergic receptor of cloned human receptor.
Assay [5] addresses T1, Alpha-1A adrenergic receptor. Kind of assay: In vitro binding affinity against Alpha-1A adrenergic receptor of cloned human receptor.

Several values for one entry are separate records, joined by “and”; a condition that tells them apart may be missing. Equal entries are not always repeated.

In assay [1], `COc1cc2nc(N3CCN(C(=O)C4CCCO4)CC3)nc(N)c2cc1OC` (stereo not given) [TERAZOSIN] had a Kb of 25 nM.

On to `CCC1=C(C(N)=O)C(c2ccc([N+](=O)[O-])cc2)N(C(=O)NCCCN2CCC(C(=O)OC)(c3ccccc3)CC2)C(=O)N1` (stereo not given), for which the Ki in assay [2] was 0.19 nM; in assay [3], 740 nM and 420 nM and 290 nM; in assay [4], 360 nM and 130 nM and 160 nM; in assay [5], 0.2 nM and 1.9 nM and 0.5 nM.

What is called Kb is the equilibrium dissociation constant of an antagonist, usually derived from a functional assay. Low values mean a more potent antagonist, high ones a less potent antagonist. A word on the Ki: it is the dissociation constant of the complex between target and ligand, obtained from inhibition or displacement. A higher Ki goes with weaker binding.

The record behind these values is ChEMBL document CHEMBL1132476, “Design and synthesis of novel alpha(1)(a) adrenoceptor-selective antagonists. 1. Structure-activity relationship in dihydropyrimidinones” (J Med Chem, 1999).
